This passage reports IC50 results from ChEMBL document CHEMBL1124616, “Hybrid cholecystokinin (CCK) antagonists: new implications in the design and modification of CCK antagonists” (J Med Chem, 1989).

The chains behind the UniProt entries cited, without tags or fusion partners.
UniProt Q63931, whole entry: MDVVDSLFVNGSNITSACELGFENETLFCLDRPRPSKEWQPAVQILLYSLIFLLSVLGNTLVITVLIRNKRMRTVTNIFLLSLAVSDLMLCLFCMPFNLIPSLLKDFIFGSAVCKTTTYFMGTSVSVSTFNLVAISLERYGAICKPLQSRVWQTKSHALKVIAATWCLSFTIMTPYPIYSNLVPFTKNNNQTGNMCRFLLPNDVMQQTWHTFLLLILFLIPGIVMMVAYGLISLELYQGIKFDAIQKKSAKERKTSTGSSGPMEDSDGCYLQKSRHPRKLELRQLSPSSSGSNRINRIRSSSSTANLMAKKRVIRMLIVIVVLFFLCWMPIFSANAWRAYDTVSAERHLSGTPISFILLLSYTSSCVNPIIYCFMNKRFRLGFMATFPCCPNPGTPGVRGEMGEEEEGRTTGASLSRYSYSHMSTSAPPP

The target in this assay is Cholecystokinin receptor type A (Cavia porcellus, UniProt Q63931). Nature of the assay: Compound was evaluated for the binding affinity against CCK A receptor in pancreatic acinar cell.

SMILES strings stand for the structures.

By IC50 is commonly meant the concentration at which inhibition is half-maximal. `CCCCCN(CCCCC)C(=O)[C@@H](CCC(=O)O)NC(=O)c1cc2ccccc2[nH]1` displayed an IC50 of 19 nM.
